The values that follow are results of earlier work, collected in article PMC9867837 (Cancer letters, 2022).

Sequences of proteins named here, by UniProt entry; tags and fusion partners are left off.
UniProt P40763, whole entry: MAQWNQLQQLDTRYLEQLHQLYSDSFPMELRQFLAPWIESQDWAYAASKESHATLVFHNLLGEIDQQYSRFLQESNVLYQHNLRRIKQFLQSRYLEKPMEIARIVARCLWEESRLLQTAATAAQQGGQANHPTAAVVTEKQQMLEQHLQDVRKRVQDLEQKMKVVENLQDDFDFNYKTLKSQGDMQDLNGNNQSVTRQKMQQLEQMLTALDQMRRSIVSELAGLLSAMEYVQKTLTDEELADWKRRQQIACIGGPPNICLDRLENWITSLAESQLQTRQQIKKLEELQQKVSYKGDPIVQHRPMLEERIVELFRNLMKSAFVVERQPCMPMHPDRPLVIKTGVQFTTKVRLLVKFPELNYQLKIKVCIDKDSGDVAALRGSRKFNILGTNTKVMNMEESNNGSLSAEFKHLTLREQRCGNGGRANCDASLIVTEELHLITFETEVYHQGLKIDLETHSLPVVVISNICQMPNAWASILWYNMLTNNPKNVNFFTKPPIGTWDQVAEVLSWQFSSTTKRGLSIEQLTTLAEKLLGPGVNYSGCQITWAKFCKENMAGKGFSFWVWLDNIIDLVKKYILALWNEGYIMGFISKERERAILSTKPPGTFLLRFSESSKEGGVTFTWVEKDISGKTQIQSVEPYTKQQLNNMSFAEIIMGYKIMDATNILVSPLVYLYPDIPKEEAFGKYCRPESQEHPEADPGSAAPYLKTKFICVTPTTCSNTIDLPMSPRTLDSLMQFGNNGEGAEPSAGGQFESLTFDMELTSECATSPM

This series has as its target SH2 domain of pure recombinant Stat3 (Homo sapiens, UniProt P40763). Also on record: method as in PMID 12639546. The following applies: read-out: KD for binding to the SH2 domain; cited from earlier work.

On to “GpYLPQTV-NH2 (GYLPQTV; phospho-Tyr at position 2 of the peptide; C-terminal amide (NH2))”, for which the Kd (commonly the equilibrium constant for the complex coming apart) was 150 nM.
